Reference: ChEMBL document CHEMBL1938364, “Discovery of orally active pyrazoloquinolines as potent PDE10 inhibitors for the management of schizophrenia” (Bioorg Med Chem Lett, 2012)

Amino acid sequences for entries named in this document (tags omitted). A change or cut given only in a name is not applied to a line headed by its entry.
UniProt Q07343: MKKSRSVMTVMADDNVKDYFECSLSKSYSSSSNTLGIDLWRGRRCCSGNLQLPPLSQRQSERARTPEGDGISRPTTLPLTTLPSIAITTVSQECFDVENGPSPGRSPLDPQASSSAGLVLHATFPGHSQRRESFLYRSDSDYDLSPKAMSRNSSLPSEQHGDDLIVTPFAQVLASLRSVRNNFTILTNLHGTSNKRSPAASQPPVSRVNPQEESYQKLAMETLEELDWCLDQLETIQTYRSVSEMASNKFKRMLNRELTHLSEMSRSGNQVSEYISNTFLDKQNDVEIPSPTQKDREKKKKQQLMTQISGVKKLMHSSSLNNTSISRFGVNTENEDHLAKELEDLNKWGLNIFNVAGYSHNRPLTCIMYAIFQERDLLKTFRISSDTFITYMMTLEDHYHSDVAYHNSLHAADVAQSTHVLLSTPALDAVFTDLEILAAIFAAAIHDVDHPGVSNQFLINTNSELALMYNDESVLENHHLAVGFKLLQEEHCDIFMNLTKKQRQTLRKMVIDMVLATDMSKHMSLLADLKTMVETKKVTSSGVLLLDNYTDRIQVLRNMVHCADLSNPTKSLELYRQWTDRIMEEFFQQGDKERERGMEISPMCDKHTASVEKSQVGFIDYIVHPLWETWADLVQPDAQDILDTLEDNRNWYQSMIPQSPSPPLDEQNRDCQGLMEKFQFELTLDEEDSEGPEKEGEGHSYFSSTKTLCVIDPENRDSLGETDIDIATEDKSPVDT
UniProt O76083: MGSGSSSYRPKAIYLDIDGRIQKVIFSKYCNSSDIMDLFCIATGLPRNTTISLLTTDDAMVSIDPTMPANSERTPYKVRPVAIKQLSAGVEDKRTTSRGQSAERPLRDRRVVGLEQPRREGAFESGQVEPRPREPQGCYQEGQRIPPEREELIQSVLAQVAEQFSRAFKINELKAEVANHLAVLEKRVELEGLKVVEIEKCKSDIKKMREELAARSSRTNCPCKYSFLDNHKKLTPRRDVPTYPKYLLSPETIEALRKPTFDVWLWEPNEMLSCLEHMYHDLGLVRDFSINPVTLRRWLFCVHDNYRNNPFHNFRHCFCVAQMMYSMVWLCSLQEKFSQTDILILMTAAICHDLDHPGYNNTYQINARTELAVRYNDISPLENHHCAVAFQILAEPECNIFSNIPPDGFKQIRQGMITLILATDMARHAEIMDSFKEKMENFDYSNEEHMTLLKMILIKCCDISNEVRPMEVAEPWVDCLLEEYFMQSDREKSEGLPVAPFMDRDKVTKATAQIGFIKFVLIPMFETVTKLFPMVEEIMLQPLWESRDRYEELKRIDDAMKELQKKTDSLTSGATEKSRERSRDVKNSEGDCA
UniProt Q13946: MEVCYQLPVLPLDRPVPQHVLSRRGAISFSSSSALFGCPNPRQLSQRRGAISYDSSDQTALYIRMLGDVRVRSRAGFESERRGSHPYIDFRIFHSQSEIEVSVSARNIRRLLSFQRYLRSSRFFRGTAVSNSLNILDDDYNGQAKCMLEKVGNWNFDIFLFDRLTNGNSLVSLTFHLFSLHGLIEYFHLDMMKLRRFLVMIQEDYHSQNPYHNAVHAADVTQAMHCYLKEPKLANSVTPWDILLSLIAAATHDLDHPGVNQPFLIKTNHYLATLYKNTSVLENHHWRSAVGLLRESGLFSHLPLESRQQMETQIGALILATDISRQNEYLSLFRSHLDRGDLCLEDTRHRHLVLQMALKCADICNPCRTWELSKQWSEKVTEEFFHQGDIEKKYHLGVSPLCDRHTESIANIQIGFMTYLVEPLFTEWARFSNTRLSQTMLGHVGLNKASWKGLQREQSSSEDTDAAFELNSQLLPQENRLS
UniProt P54750: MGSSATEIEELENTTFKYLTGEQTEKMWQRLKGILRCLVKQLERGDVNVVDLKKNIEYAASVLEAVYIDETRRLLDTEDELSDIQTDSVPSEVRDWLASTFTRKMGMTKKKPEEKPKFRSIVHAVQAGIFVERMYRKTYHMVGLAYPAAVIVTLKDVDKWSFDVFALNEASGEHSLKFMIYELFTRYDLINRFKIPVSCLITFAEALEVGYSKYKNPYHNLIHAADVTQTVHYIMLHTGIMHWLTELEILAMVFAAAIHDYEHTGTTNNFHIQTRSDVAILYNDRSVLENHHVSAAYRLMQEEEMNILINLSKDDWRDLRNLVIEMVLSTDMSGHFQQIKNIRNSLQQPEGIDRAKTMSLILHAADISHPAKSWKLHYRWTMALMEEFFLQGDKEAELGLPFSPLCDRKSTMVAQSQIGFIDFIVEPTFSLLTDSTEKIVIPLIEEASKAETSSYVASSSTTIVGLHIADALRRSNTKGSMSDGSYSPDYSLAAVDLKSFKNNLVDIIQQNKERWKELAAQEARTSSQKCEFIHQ
UniProt O00408, whole entry: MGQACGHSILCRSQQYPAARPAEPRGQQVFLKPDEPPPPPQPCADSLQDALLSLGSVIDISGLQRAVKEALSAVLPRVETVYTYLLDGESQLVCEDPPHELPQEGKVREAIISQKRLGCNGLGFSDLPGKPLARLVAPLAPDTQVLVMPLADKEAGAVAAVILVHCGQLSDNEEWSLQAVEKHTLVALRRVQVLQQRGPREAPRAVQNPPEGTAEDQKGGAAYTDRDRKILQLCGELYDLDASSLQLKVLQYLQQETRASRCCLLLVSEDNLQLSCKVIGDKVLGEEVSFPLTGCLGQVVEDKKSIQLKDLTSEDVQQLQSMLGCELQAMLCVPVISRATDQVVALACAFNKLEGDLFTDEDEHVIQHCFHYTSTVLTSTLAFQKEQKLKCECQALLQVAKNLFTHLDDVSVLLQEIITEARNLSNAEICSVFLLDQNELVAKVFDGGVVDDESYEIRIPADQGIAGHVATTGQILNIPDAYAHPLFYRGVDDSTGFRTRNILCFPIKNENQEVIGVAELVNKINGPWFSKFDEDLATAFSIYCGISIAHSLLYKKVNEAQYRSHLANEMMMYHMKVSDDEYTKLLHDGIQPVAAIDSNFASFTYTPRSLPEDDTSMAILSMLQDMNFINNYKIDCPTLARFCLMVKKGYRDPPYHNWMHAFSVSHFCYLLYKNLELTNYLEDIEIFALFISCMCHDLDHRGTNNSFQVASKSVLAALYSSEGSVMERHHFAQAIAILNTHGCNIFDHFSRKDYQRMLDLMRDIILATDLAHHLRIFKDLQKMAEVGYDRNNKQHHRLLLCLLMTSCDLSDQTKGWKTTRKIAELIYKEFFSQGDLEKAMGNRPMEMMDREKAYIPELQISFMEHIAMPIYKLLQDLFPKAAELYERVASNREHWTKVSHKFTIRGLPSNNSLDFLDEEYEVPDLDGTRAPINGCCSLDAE

Assays:
[1] = target: 3',5'-cyclic-AMP phosphodiesterase 4B (Homo sapiens, UniProt Q07343); assay: Displacement of [3H]cAMP from PDE4B2 by competitive binding assay
[2] = target: High affinity cGMP-specific 3',5'-cyclic phosphodiesterase 9A (Homo sapiens, UniProt O76083); assay: Displacement of [3H]cAMP from PDE9A1 by competitive binding assay
[3] = target: High affinity 3',5'-cyclic-AMP phosphodiesterase 7A (Homo sapiens, UniProt Q13946); assay: Displacement of [3H]cAMP from PDE7A1 by competitive binding assay
[4] = target: Dual specificity calcium/calmodulin-dependent 3',5'-cyclic nucleotide phosphodiesterase 1A (Homo sapiens, UniProt P54750); assay: Displacement of [3H]cAMP from PDE1A3 by competitive binding assay
[5] = target: cGMP-dependent 3',5'-cyclic phosphodiesterase (Homo sapiens, UniProt O00408); assay: Displacement of [3H]cAMP from PDE2A by competitive binding assay

| pKi [1] | pKi [2] | pKi [3] | pKi [4] | pKi [5] | Structure (SMILES) |
| --- | --- | --- | --- | --- | --- |
| < 5.00 | < 5.00 | < 5.00 | < 5.00 | – | COc1cc(C)c2nc3[nH]nc(C)c3c(CN3CCOC(C)C3)c2c1 (stereo not drawn) |
| – | – | – | – | < 5.00 | Cc1cc(O)cc2c(CN3CCCOCC3)c3c(C)n[nH]c3nc12 |

The next lines start with the molecule.

| Structure (SMILES) | pKi [1] | pKi [2] | pKi [3] | pKi [4] | pKi [5] |
| --- | --- | --- | --- | --- | --- |
| COc1cc(C)c2nc3[nH]nc(C)c3c(CN3CCCOCC3)c2c1 | < 5.00 | < 5.00 | < 5.00 | < 5.00 | – |
| COc1cc(C)c2nc3[nH]nc(C)c3c(CN3CC[C@@H](O)C3)c2c1 | – | – | < 5.00 | < 5.00 | – |
| COc1cc(C)c2nc3[nH]nc(C)c3c(CN3CCOCC3)c2c1 | – | – | < 5.00 | < 5.00 | – |

pKi: −log10 of the molar value.
